Here are results for 1 compound from patent US10947274B1 (priority 2018, dated 2021).

Amino acid sequences for entries named in this document (tags omitted). Residues count along the entry.
UniProt P43144, 26-479 limits assumed: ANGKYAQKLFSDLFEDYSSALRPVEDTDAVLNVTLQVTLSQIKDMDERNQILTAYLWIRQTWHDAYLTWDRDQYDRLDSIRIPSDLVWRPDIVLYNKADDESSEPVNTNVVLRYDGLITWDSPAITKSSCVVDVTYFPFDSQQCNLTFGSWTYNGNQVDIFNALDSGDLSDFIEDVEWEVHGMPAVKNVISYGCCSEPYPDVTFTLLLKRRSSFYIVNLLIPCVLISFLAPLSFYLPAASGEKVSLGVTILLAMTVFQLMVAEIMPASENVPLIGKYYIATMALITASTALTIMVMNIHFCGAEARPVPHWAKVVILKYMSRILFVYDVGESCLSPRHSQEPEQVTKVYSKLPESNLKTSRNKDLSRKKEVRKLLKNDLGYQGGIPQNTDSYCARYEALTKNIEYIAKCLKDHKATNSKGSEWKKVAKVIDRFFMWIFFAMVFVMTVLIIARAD
UniProt Q9JLB5, 25-447 limits assumed: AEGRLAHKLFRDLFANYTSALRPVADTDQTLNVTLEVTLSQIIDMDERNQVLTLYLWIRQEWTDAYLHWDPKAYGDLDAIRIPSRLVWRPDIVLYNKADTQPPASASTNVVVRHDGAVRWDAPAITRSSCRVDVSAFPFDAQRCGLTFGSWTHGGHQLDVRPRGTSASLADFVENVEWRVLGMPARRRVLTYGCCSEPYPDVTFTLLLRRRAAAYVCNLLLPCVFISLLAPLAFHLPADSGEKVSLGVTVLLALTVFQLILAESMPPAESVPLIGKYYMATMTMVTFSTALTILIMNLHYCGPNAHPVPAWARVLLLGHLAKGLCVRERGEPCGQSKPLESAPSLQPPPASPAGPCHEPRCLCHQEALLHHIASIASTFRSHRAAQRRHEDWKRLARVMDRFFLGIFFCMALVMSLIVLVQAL

pIC50: −log10 of the molar value.

The target of the experiment is rat α9α10 nAChR (Rattus norvegicus, UniProt P43144+Q9JLB5). Kind of experiment: cell-based.

`N=C(N)NCCC[C@H](NC(=O)[C@@H]1CSSC[C@@H]2NC(=O)[C@@H](NC(=O)CN)C[Se][Se]C[C@H](NC(=O)[C@H](CCCNC(=N)N)NC(=O)[C@@H]3CCCN3C(=O)[C@H](CC(=O)O)NC(=O)[C@H](CO)NC2=O)C(=O)N[C@@H](CCCNC(=N)N)C(=O)N[C@@H](Cc2ccc(O)cc2)C(=O)N[C@@H](CCCNC(=N)N)C(=O)N1)C(=O)O` [[C2Sec;C8Sec] RgIA]: the “% block” value is reported as <10 nM (96.9 ± 1.4% block at 10 nM) and the pIC50 is > 8.00.

As usually defined, the pIC50 is the negative decadic logarithm of the IC50, by convention in mol/L. Read a high pIC50 as a low IC50.
